Results from patent US10221174B2.
Like-named read-outs stand apart in the source and are kept apart here.

Amino acid sequences for entries named in this document (tags omitted).
UniProt P10415, whole entry: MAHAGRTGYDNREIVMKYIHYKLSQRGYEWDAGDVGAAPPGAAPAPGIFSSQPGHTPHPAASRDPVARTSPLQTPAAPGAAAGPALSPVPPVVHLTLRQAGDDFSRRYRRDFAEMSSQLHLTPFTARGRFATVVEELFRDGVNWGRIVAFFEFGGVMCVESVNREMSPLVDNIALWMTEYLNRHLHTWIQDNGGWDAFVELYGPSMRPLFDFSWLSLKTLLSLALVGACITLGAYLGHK
UniProt Q07817, whole entry: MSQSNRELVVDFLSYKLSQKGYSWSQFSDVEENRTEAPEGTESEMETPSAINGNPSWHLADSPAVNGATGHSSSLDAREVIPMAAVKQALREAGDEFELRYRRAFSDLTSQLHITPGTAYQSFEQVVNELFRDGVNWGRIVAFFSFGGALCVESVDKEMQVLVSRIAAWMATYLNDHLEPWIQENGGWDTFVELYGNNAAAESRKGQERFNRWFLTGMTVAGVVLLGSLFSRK

Assays:
Bcl-2 [1] = target: T1, Bcl-2 (Homo sapiens (Human), UniProt P10415)
Bcl-xL = Bcl-xL (Homo sapiens (Human), UniProt Q07817); assay: Fluorescence polarization competitive binding assay, Bcl-xL; details: FP competition, 10 nM Bcl-xL, 2 nM Flu-BAK probe; read-out: Inhibitory activity IC50 Bcl-xL
Bcl-2 [2] = target: T1, Bcl-2; assay: biochemical

Compound	IC50 (Bcl-2 [1])	IC50 (Bcl-xL)	IC50 (Bcl-2 [2])
O=C(NS(=O)(=O)c1ccc(NCC2CCOCC2)c([N+](=O)[O-])c1)c1ccc(C2=CCN(CC3=C(c4ccc(Cl)cc4)CC4(CCC4)CC3)CC2)cc1Oc1cnc2[nH]ccc2c1 [compound 7, 2-((1H-pyrrolo[2,3-b]pyridin-5-yl)oxy)-4-(1-((6-(4-chlorophenyl)spiro[3.5]non-6-en-7-yl)methyl)-1,2,3,6-tetrahydropyridin-4-yl)-N-((3-nitro-4-(((tetrahydro-2H-pyran-4-yl)methyl)amino)phenyl)sulfonyl)benzamide]	2.4 nM		
O=C(NS(=O)(=O)c1cc([N+](=O)[O-])c2c(cnn2CC2CCOCC2)c1)c1ccc(N2CCN(CC3=C(c4ccc(Cl)cc4)CC4(CCC4)CC3)CC2)cc1Oc1cnc2[nH]ccc2c1 [compound 60, 2-((1H-pyrrolo[2,3-b]pyridin-5-yl)oxy)-4-(4-((6-(4-chlorophenyl)spiro[3.5]non-6-en-7-yl)methyl)piperazin-1-yl)-N-((7-nitro-1-((tetrahydro-2H-pyran-4-yl)methyl)-1H-indazol-5-yl)sulfonyl)benzamide]	2.1 nM		
O=C(NS(=O)(=O)c1ccc(NC[C@@H]2COCCO2)c([N+](=O)[O-])c1)c1ccc(C2=CCN(CC3=C(c4ccc(Cl)cc4)CC4(CC3)COC4)CC2)cc1Oc1cnc2[nH]ccc2c1 [Cpd. No. 5, (R)-N-((4-(((1,4-dioxan-2-yl)methyl)amino)-3-nitrophenyl)sulfonyl)-2-((1H-pyrrolo[2,3-b]pyridin-5-yl)oxy)-4-(1-((6-(4-chlorophenyl)-2-oxaspiro[3.5]non-6-en-7-yl)methyl)-1,2,3,6-tetrahydropyridin-4-yl)benzamide]		14 nM	2.1 nM
O=C(NS(=O)(=O)c1cc([N+](=O)[O-])c2nn(CC3CCOCC3)cc2c1)c1ccc(N2CCN(CC3=C(c4ccc(Cl)cc4)CC4(CCC4)CC3)CC2)cc1Oc1cnc2[nH]ccc2c1 [compound 61, 2-((1H-pyrrolo[2,3-b]pyridin-5-yl)oxy)-4-(4-((6-(4-chlorophenyl)spiro[3.5]non-6-en-7-yl)methyl)piperazin-1-yl)-N-((7-nitro-2-((tetrahydro-2H-pyran-4-yl)methyl)-2H-indazol-5yl)sulfonyl)benzamide]	2.1 nM		
O=C(NS(=O)(=O)c1ccc(NCC2CCOCC2)c([N+](=O)[O-])c1)c1ccc(C2=CCN(CC3=C(c4ccc(Cl)cc4)CC4(CC3)COC4)CC2)cc1Oc1cnc2[nH]ccc2c1 [compound 9, 2-((1H-pyrrolo[2,3-b]pyridin-5-yl)oxy)-4-(1-((6-(4-chlorophenyl)-2-oxaspiro[3.5]non-6-en-7-yl)methyl)-1,2,3,6-tetrahydropyridin-4-yl)-N-((3-nitro-4-(((tetrahydro-2H-pyran-4-yl)methyl)amino)phenyl)sulfonyl)benzamide]	1.9 nM	20.6 nM	
